# Measurements as given in article PMC10967909, “Targeted Delivery of Abaloparatide to Spinal Fusion Site Accelerates Fusion Process in Rats” (Biomedicines, 2024).
# How the values were obtained:
# [1] = test system: L4–L5 bilateral posterolateral lumbar spinal fusion in Sprague Dawley rats; test: Efficacy study: spinal fusion mineralization and fusion by μCT; assay type: in vivo
# Method: (§1) Once acidic oligopeptides spinal fusion-targeting was established, an efficacy study in both male and female skeletally-mature Sprague Dawley rats (n = 10/sex) (Envigo, Indianapolis, IN, USA) was performed using the same surgical procedure as before with a 5 × 7.5 mm RCM6 collagen sponge (Ace Surgical supplies, Brockton, MA, USA). A total of 60 rats were randomly assigned to one of three treatments: phosphate-buffered saline vehicle control, 10 μg BMP2 (BioVision, Milpitas, CA, USA), or 38 nmol/kg twice a week of acidic oligopeptide-targeted abaloparatide (Abalo46-D-Glu20). The initial dose of all drugs was administered on the sponge and then vehicle control and Abalo46-D-Glu20 were administered subcutaneously twice a week for 8 weeks. The spinal fusion mineralization was assessed using a Quantum GX μCT (Perkin Elmer, Waltham, MA, USA). Each rat was scanned weekly during weeks 3–8. The scans were blindly scored by two separate individuals. The density and total volume of the fusions was calculated from the μCT scans. At the end, the lumbars were removed and blindly manually palpated, as has been previously described. Data were analyzed in GraphPad Prism version 9, and significance was established by ANOVA. All animal experiments were performed in accordance with protocols approved by Purdue University’s Institutional Animal Care and Use Committee (IACUC).
# [2] = test system: L4–L5 bilateral posterolateral lumbar spinal fusion in Sprague Dawley rats; test: Efficacy study: fusion by manual palpation of excised lumbars; assay type: in vivo; details: after 8 weeks, male rats, n = 10, blinded, saline 29%
# Method: as §1
# [3] = discussion; ref not given; cited from earlier work
# Method: Over 500,000 spinal fusions are performed annually in the United States at an average cost of ~USD 120,000/per procedure. With recovery times for full activity ranging from 3 to 12 months and failure rates varying from 10 to 36% [3, 4], there is clearly a need to explore alternative strategies for improving the procedure. Thus, prolonged postoperative immobilization increases the risk for comorbidities and reduces quality of life, while fusion failure imposes a need for additional surgical interventions and/or prolonged restriction of mobility. Moreover, current ther ... || A second question that logically arose is whether abaloparatide constituted the ideal payload for accelerating the fusion process. Although the PTH1R agonist, abaloparatide, has been well established as a bone anabolic agent, it is only clinically approved for treating osteoporosis. Most of abaloparatide’s applications have been limited to promoting systemic changes throughout the skeleton to reduce fracture risk.
substance,measurement,setting,value
"BMP2: bone morphogenetic protein 2 (BioVision), 10 μg, topically applied standard of care",average fusion score (out of 16),"[1]; 8 weeks, male rats, mean of n = 10, two blinded reviewers, sum of four 0–4 scores, saline 6.2",9.2
same,fusion rate (completed osteointegration by micro CT),"[1]; 8 weeks, male rats, n = 10, blinded, Ab46-D-Glu20 38 nmol/kg b.i.w. s.c., BMP2 10 μg on sponge, saline group 38%",63%
same,rate of mineralization / fusion process (μCT over time),"[1]; 8 weeks, 38 nmol/kg b.i.w. s.c. vs BMP2 (10 μg on sponge) and saline",proceed slower than with Ab46-D-Glu20
same,response of female rats,"[1]; female rats, collagen sponge, BMP2 10 μg vs Ab46-D-Glu20 38 nmol/kg b.i.w.",female rats responded more poorly to BMP2 than they did to Ab46-D-Glu20
same,joints fused by manual palpation,[2],66%
same,adverse effects of leakage into surrounding tissue,[3],"leakage into the surrounding tissue, which leads to serious edema and ectopic mineralization"
